The list is not random: actives were taken first. Their share in the collection is about 16%.
TDP1 cell CPT: DT40-hTDP1 cell growth loss with CPT; Potency, µM (highest dose often 46.2 µM), without a hit: top-dose activity change, negative = growth inhibition, most hits filed as inhibitors; chicken DT40 Tdp1-/-;hTDP1 cells + 20 nM CPT, ATP luminescence, 48 h; 420,000 compounds, 12% hits; note: potency is the fitted concentration of half-maximal effect; % is set by controls: 0 for no effect and ±100 for the full control effect; nearly all actives have a fitted effect of over 55% in size
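Chicken DT40 Tdp1-/- cells complemented with human TDP1, 400 cells/well, exposed to compounds plus 20 nM camptothecin for at least 48 h at 37 C; viability read as ATP content by CellTiter-Glo luminescence.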
TDP1 cell noCPT: qHTS for Inhibitors of human tyrosyl-DNA phosphodiesterase 1 (TDP1): qHTS in cells in absence of CPT; DT40 Tdp1-/- hTDP1 cells, no CPT, ATP luminescence, 48 h; Potency, µM (series often up to 46.2 µM), inactives show at the highest dose activity change, negative = growth inhibition, most hits filed as inhibitors; 420,000 compounds, 15% hits; note: potency is the fitted concentration of half-maximal effect; % is set by controls: 0 for no effect and ±100 for the full control effect; nearly all actives have a fitted effect of over 55% in size
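Compound effects on proliferation are scored in DT40 Tdp1-/-;hTDP1 cells in the absence of CPT. ATP levels (CellTiter-Glo luminescence) are recorded after a ≥48 hr, 37 °C incubation.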
miR-21 reporter: miR-21 reporter, rising signal. HeLa miR-21 FLuc reporter, luciferase, 48 h. Potency, µM (titrated, usually from 38.3 µM), without a hit: at the top dose reporter change, positive = more light. 340,000 tested, under 10 active. AID 2288; active = well fitted rising curve with a large enough effect; inconclusive = small, poorly fitted or top-dose-only effect; inactive = no such curve, though single readings can be large or run the other way;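 also: % of control where 0% means no effect; miR-21 action dims this reporter so a rising signal means less miR-21 action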
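HeLa miR-21-FLuc reporter line, endogenous miR-21; 2000 cells/well in DMEM/10% FBS; compound titration up to ~40uM final, 48 h, 37 degree Celsius; luciferase detection reagent, 15 min lysis, CCD luminescence.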
TDP1 block: blocks human tyrosyl-DNA phosphodiesterase 1. recombinant TDP1, AlphaScreen DNA substrate cleavage. 350,000 compounds, 0.28% hits. Potency, µM (top dose mostly 130 µM), inactives show at the highest dose activity change, negative = inhibition, usual class: inhibitors. AID 485290. Q9NUW8; note: potency is the fitted concentration of half-maximal effect; % is set by controls: 0 for no effect and ±100 for the full control effect; nearly all actives have a fitted effect of over 40% in size
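Recombinant human Tdp1 (E. coli-expressed, 1 nM final) preincubated with compounds 15 min at room temperature, then 5'-biotin/3'-phosphotyrosine-FITC DNA substrate (15 nM final) added for 5 min. AlphaScreen beads (10 ug/ml final) added 10 min; cleavage lowers signal.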
uPA generation: blocks generation of uPA at the cell surface | cell surface uPA generation assay, qHTS | 330,000 compounds, 0.31% hits | Potency, µM (titrated, usually from 38.3 µM), for the others: top-dose activity change, negative = inhibition, actives largely listed as inhibitors; active = well fitted inhibition curve with a large enough effect; inconclusive = small, poorly fitted or top-dose-only effect; inactive = no such curve, though single readings can be large or run the other way; tested in mouse RAW 264.7 cells; note: potency is the fitted concentration of half-maximal effect; % is set by controls: 0 for no effect and ±100 for the full control effect; nearly all actives have a fitted effect of over 55% in size
An asterisk follows results filed as active; ? = inconclusive; nt = no result; [ ] = dose if it differs, or a comment. Unless noted, calls come from the whole dose curve; as a rule, active = well fitted curve in the direction sought with a large enough effect; inconclusive = small, poorly fitted or top-dose-only effect, or another doubt; inactive = no such curve, though single readings can be large; an effect the other way counts as inactive or inconclusive.

Start of the data: the first 4 records, ahead of the listing:
Results follow in this order: TDP1 cell CPT | TDP1 cell noCPT | miR-21 reporter | TDP1 block | uPA generation
(1) Cc1ccc(-c2nnc(N3CCN(C(=O)CN4CCOCC4)CC3)c3ccccc23)cc1
  -27% | 16µM* | 6% | 1% | nt
(2) O=C(c1cccs1)N1CCN(c2nnc(-c3ccccc3)c3ccccc23)CC1
  ? | ? | 15% | 3% | 4%
(3) Cc1ccc(-c2nnc(N3CCN(C(=O)c4cccs4)CC3)c3ccccc23)cc1
  ? | 23µM* | 1% | 3% | 8%
(4) Cc1ccc(-c2nnc(N3CCN(C(=O)Cn4c(=O)n(C)c5ccccc54)CC3)c3ccccc23)cc1
  ? | 16µM* | 13% | 2% | nt

The list itself, from the first entry:
Results follow in this order: TDP1 cell CPT | TDP1 cell noCPT | miR-21 reporter | TDP1 block | uPA generation
(1) Cc1ccc(-c2nnc(N3CCN(C(=O)CN4CCOCC4)CC3)c3ccccc23)cc1
  -27% | 16µM* | 6% | 1% | nt
(2) O=C(c1cccs1)N1CCN(c2nnc(-c3ccccc3)c3ccccc23)CC1
  ? | ? | 15% | 3% | 4%
(3) Cc1ccc(-c2nnc(N3CCN(C(=O)c4cccs4)CC3)c3ccccc23)cc1
  ? | 23µM* | 1% | 3% | 8%
(4) Cc1ccc(-c2nnc(N3CCN(C(=O)Cn4c(=O)n(C)c5ccccc54)CC3)c3ccccc23)cc1
  ? | 16µM* | 13% | 2% | nt
(5) Cn1c(=O)n(CC(=O)N2CCN(c3nnc(-c4ccccc4)c4ccccc34)CC2)c2ccccc21
  ? | ? | 23% | 5% | -15%
(6) COc1ccc(NC(=O)c2cc(C3CCCCN3S(C)(=O)=O)on2)c(C)c1 (stereo not drawn)
  -11% | -4% | nt | nt | nt
(7) COc1ccc(NC(=O)c2cc(C3CCCCN3S(=O)(=O)c3ccc(F)cc3F)on2)c(C)c1 (stereo not drawn)
  ? | 15µM* | nt | nt | nt
(8) COc1ccc(NC(=O)c2cc(C3CCCCN3S(=O)(=O)c3ccccc3)on2)c(C)c1 (stereo not drawn)
  ? | 8.2µM* | nt | nt | nt
(9) COc1ccc(C(=O)N(C)CC(=O)Nc2cccc(F)c2)cc1S(=O)(=O)NC1CCCC1
  -19% | -26% | nt | nt | 1%
(10) COc1ccc(-c2nnc(SCC(=O)N3CCCc4ccccc43)o2)cc1OC
  ? | ? | -2% | 4%[56.1 µM] | 6%
(11) Cc1ccc(Nc2cc(C(=O)NC3CCCC3)c3ccccc3n2)cc1C
  13µM* | 15µM* | 23% | -3% | nt
(12) Cc1ccccc1Nc1cc(C(=O)NC2CCC(C)CC2)c2ccccc2n1 (stereo not drawn)
  16µM* | 12µM* | -38% | 0% | nt
(13) Cc1ccccc1Nc1cc(C(=O)NC2CCCCC2)c2ccccc2n1
  ? | 21µM* | -7% | -2% | nt
(14) O=C(c1ccccc1Cl)N1CCn2c1nc1ccccc12
  2% | 11% | -1% | 0% | -1%
(15) CC1(C)N=C(C(=O)c2ccccc2)N(O)C1(C)O (stereo not drawn)
  -2% | -6% | 2% | 6% | -3%
(16) Cc1ccccc1-c1nc(N2CCOCC2)c2ccccc2n1
  -5% | -11% | nt | nt | nt
(17) CC(=O)Nc1cccc(NC(=O)Cn2cnc3c2c(=O)n(C)c(=O)n3C)c1
  0% | -3% | 1% | 3%[12.3 µM] | nt
(18) CCOc1ccccc1CNC(=O)CN1C(=O)c2cccnc2Oc2ccc(C)cc21
  ? | ? | 15% | 2% | nt
(19) O=C(CCl)N1c2ccccc2Sc2ccc3ccccc3c21
  3.7µM* | 2.3µM* | nt | nt | nt
(20) O=C(COc1ccc2ccccc2c1)N1c2ccccc2Sc2ccccc21
  ? | ? | -1% | 6% | nt
(21) COc1ccc(NC(=O)C[C@H]2C(=O)N(c3ccc(Br)cc3)C[C@@H]2CSC)cc1
  ? | 23µM* | nt | nt | nt
(22) COc1ccc(N2C[C@H](CSC)[C@@H](CC(=O)Nc3ccc(Br)cc3)C2=O)cc1
  ? | 21µM* | nt | nt | nt
(23) O=C(C[C@H]1C(=O)N(c2ccccc2)C[C@@H]1Cc1ccccc1)Nc1ccc(Br)cc1
  13µM* | 9.2µM* | nt | nt | nt
(24) CCC[C@H]1CN(c2ccc(Br)cc2)C(=O)[C@@H]1CC(=O)Nc1ccc(OC)cc1
  ? | 16µM* | nt | nt | nt
(25) COc1ccc(NC(=O)C[C@H]2C(=O)N(c3ccc(OC)cc3)C[C@@H]2CSC)cc1
  -23% | ? | nt | nt | nt
(26) O=C(CC1CCCC1)N1CCN(S(=O)(=O)c2cccc(F)c2)CC1
  -30% | ? | nt | nt | -5%
(27) COc1ccc(S(=O)(=O)N2CCC(c3cc(-c4cccc5ccccc45)n[nH]3)CC2)cc1
  ? | ? | 14% | 5% | -3%
(28) O=S(=O)(c1cccc(C(F)(F)F)c1)N1CCC(c2cc(-c3cccc4ccccc34)n[nH]2)CC1
  21µM* | ? | 16% | 1% | 5%
(29) CC(C)(C)[C@H]1C=C(C(=O)NCc2nc3ccccc3[nH]2)O[C@@H](OCc2ccc(CO)cc2)C1
  21µM* | ? | 26% | 1% | 4%
